In patent US7718645B2, “Substituted bicyclolactam compounds” (Pfizer Inc., priority 2007, dated 2010):
Where two headings read alike, the source gives them in different places.

Target: T1, Human full-length diacylglycerol:acylCoA acyltransferase 1 (DGAT-1) (Homo sapiens, UniProt O75907)
T1 construct: Human full-length diacylglycerol:acylCoA acyltransferase 1 (DGAT-1) was expressed in Sf9 insect cells; made in house; host or cells: Sf9 insect cells (baculovirus)
T1 sequence (O75907 1-488): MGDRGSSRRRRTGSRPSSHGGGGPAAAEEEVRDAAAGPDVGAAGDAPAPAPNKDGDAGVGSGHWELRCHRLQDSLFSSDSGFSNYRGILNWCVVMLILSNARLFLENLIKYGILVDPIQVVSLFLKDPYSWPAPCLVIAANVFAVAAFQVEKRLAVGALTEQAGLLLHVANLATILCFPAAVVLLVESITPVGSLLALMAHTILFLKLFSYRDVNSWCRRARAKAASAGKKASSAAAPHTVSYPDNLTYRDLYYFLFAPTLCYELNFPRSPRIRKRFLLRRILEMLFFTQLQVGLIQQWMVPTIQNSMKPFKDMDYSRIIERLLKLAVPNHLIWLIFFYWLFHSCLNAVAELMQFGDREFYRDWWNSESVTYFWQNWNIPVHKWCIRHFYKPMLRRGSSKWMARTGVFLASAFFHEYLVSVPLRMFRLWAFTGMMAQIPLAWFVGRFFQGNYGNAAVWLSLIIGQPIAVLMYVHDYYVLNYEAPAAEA
Test: In vitro assay for DGAT-1 inhibition ([14C]decanoylCoA, Sf9 membrane fraction)
Format: biochemical
Procedure: Human full-length diacylglycerol:acylCoA acyltransferase 1 (DGAT-1) was expressed in Sf9 insect cells which are then lysed and a crude membrane fraction (105,000×g pellet) was prepared.
The cells were cultured as follows. Sf9 cells (20 L) were infected with 4 mL of DGAT1 Baculovirus Infected Insect Cells (BIIC) for 72 hours in a Wave Bioreactor System 20/50P (Wave Biotec/GE Healthcare).
Crude DGAT-1 microsomes were prepared as follows. Cell pellets were washed once with ice-cold Dulbecco's phosphate-buffered saline. Cells were collected in tabletop centrifuge (Beckman GS-6KR), 15 minutes, 2000×g, 4° C. Twenty (20) mL of ice-cold Microsome Buffer (MB) was added per 5 g of cell pellet. The suspension was passed through a microfluidizer 3 times (18K psi). The lysate was transferred to centrifuge tubes and centrifuged for 20 minutes at 5000×g (Beckman-Coulter, Inc. Allegra® 64R High-Speed Refrigerated Benchtop Centrifuge, F0650 rotor) at 4° C. The supernatant was transferred to Ultracentrifuge tubes and centrifuged at […] for 1 hr in a Beckman Ti-45 rotor, 4° C. The supernatant fluid was discarded. The pellet was resuspended in 70 mL of MB by sonication. The microsome concentration was determined using Bio-Rad Protein DC Protein Assay. The microsomes were filter sterilized with a 0.22 μm filter. The samples were portioned, flash frozen and stored at −80° C. […]

Question: What does the source list for “(trans-4-{4-[(7R)-4-amino-7-methyl-5-oxo-7,8-dihydropyrimido[5,4-f][1,4]-oxazepin-6(5H)-yl]phenyl cyclohexyl)acetic acid [Example 14]”?
Answer: IC50 (apparent IC50, eight inhibitor concentrations 10 μM to 3 nM, read-out: IC50): 24.7 nM; IC50 (inhibition range where the assay was performed on a compound more than once, read-out: IC50 range): 20.2 to 36.7 nM
